{"source": "patent US20050215470A1", "about": "(Amgen, published 2005)", "target": "T1, human bradykinin B1 receptor (human, UniProt P46663 1-353)", "T1 construct": "whole, on cells; For the IC50 values the receptor was stably expressed in a CHO D-/hB1/Aequorin cell line; also called hB1", "T1 sequence (looked up)": "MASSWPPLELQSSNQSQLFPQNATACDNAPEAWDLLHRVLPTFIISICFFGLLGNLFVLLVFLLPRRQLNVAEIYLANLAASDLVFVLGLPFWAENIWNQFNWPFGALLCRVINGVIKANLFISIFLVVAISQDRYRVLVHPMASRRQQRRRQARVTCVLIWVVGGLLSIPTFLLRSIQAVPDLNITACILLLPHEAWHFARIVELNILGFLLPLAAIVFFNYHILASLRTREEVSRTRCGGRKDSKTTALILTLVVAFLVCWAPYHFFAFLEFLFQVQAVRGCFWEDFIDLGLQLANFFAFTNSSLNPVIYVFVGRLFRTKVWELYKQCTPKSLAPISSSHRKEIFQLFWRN", "experiment": "cell-based or functional assay", "note": "Non-standard residues stand in square brackets, D forms with d. No end group written: not given here. Gly(cPent) = N[C@H](C(=O)O)C1CCCC1; Hyp = O=C(O)[C@@H]1C[C@@H](O)CN1; dTic = O=C(O)[C@H]1Cc2ccccc2CN1"}
{"binder": "Ac-KKRP[Hyp]G[Gly(cPent)]S[dTic][Gly(cPent)]", "note": "[SEQ ID NO: 37]", "values": [{"measurement": "IC50 in the hB1 aequorin assay", "result": 3.2, "unit": "nM"}]}
